Experimental data taken from ChEMBL document CHEMBL3817845, “Development of CNS multi-receptor ligands: Modification of known D2 pharmacophores” (Bioorg Med Chem, 2016).

Protein sequences, listed by entry. Tags and fused reporters are not part of them.
UniProt P28223, whole entry: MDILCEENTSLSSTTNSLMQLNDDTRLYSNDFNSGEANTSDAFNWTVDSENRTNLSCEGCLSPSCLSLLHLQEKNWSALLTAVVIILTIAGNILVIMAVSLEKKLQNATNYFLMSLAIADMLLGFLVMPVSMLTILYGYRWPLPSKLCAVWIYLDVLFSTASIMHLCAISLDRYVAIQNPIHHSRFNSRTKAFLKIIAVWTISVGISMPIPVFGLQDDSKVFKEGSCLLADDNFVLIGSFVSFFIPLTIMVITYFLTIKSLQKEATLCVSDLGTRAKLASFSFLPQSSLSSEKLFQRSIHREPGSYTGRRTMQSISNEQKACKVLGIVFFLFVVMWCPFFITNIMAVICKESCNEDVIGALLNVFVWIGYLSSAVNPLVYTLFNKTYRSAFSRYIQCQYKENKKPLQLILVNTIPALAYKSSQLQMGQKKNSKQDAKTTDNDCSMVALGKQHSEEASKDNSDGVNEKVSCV

Target: 5-hydroxytryptamine receptor 2A (Homo sapiens, UniProt P28223)
Experiment: Displacement of [3H]Ketanserin from human recombinant 5HT2A receptor incubated for […] by microbeta scintillation counting method

Work on `O=C1NCN(c2ccccc2)C12CCN(CCCCc1nc3cc(Cl)ccc3s1)CC2` yielded a Ki of 1120 nM.

For `O=C1NCN(c2ccccc2)C12CCN(CCCCc1c[nH]c3ccccc13)CC2`, the Ki was 982 nM.
